# Experimental data reported in PubChem BioAssay AID588795 (National Center for Advancing Translational Sciences (NCATS), 2011).
# Amino acid sequences for entries named in this document (tags omitted).
# UniProt P39748, whole entry, looked up: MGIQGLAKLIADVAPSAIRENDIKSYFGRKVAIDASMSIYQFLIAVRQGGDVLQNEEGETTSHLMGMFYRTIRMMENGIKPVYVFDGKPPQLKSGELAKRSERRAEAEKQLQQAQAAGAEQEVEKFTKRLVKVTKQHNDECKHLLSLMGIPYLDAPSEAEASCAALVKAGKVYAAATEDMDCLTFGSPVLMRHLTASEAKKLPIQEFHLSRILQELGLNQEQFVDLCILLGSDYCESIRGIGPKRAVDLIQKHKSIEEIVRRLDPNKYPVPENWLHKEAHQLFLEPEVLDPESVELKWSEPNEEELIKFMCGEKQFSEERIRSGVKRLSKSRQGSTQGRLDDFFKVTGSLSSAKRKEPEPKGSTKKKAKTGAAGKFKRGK
# This is a selection; strong and weak results do not stand in their true shares. The source made the active and inactive calls. Calls follow the shape of the dose curve; as a rule, active = well fitted inhibition curve with a large enough effect; inconclusive = small, poorly fitted or top-dose-only effect; inactive = no such curve, though single readings can be large or run the other way.
# Molecular target: Flap endonuclease 1 (Homo sapiens) (UniProt P39748)
# Experiment: qHTS Assay for the Inhibitors of Human Flap endonuclease 1 (FEN1). Also: nearly all actives have a fitted effect of over 65% in size.
# Conditions: Recombinant FEN1 flap cleavage, fluorescence, 15 min; series mostly up to 114 µM; activity change, negative = inhibition: at the top concentration
# % is scaled to controls: 0 for no effect and ±100 for the full control effect; potency is read from the fitted curve at half-maximal effect.
Compound,"activity change, negative = inhibition",Potency
NS(=O)(=O)c1cccc(NC(=O)COC(=O)C(O)(c2ccccc2)c2ccccc2)c1,inactive: -2.07%,–
O=P1(Nc2ccc(Br)cn2)COc2ccccc2OC1,inactive: 3.56%,–
O=[As](O)(c1cccs1)c1cccs1,inactive: 3.29%,–
Cc1ccc(OCC(=O)OC2CN3CCC2CC3)cc1 (stereo not given),inactive: 1.65%,–
CCOP(=O)(NC(=NC(C)c1ccccc1)NC(C)c1ccccc1)OCC (stereo not given),inactive: -11.8%,–
CCC1=CC2Cc3nc4ccc(Cl)cc4c(N)c3C(C1)C2 (stereo not given),inactive: -0.0606%,–
O=P1(Nc2ccccn2)COc2ccccc2OC1,inactive: -3.82%,–
CN(CCCl)Cc1cc(Cl)c(NC2=NCCN2)c(Cl)c1,inactive: 5.11%,–
CCOP(=O)(Nc1ccc(C)cn1)OCC,inactive: -2%,–
Clc1n[nH]nc1-c1nn[nH][15n]1,inactive: -3.7%,–
COc1ccccc1CNC(=O)COC(=O)C(O)(c1ccccc1)c1ccccc1,inactive: -7.81%,–
CN(C(=O)Cc1ccc(Cl)c(Cl)c1)[C@@H]1CCCC[C@H]1N1CCCC1,inactive: 16.8%,–
CC1(CBr)Cn2c(nc3ccccc3c2=O)S1 (stereo not given),inactive: 6.69%,–
O=C(OC1CN2CCC1CC2)c1ccc(Cl)cc1 (stereo not given),inactive: -15.5%,–
COc1cc(C(=O)NCC2(N3CCOCC3)CCCCC2)cc(Cl)c1OC(C)C,inactive: -14.1%,–
O=[As](O)(O)c1cccnc1,inactive: -1.31%,–
O=[As](O)(c1cccc(O)c1)c1cccc(O)c1,inactive: 15.9%,–
Cc1cccc(OCC(=O)OC2CN3CCC2CC3)c1 (stereo not given),inactive: -12.2%,–

Compound,"activity change, negative = inhibition",Potency
Nc1cccc2c([As](=O)(O)O)cccc12,inactive: -0.251%,–
Cc1ccc(NCCc2c([N+](=O)[O-])cc([N+](=O)[O-])cc2[N+](=O)[O-])cc1,inactive: 10.1%,–
CCCOP(=S)(Nc1nc(N)cc(=O)[nH]1)OCCC,inactive: 8.75%,–
CCOP(=O)(Nc1cccc2ccccc12)OCC,inactive: -4.39%,–
COc1cc(C2NCCC3(OCCO3)C2(C)C)cc(OC)c1OC (stereo not given),inactive: -2.52%,–
O=P(Nc1nccs1)(c1ccccc1)c1nc2ccccc2s1 (stereo not given),inactive: -4.43%,–
O=P(Nc1nccs1)(Oc1ccccc1)Oc1ccccc1,inactive: -6.37%,–
CCOP1(=S)c2c(C)nn(CCC#N)c2N=C(c2ccccc2F)N1C (stereo not given),inactive: -2.6%,–
CS(=O)(=O)c1cc([N+](=O)[O-])c2no[n+]([O-])c2c1,–,active: 44.7 µM
O=C(O)COc1ccc([As](=O)(O)O)cc1[N+](=O)[O-],inactive: 20.8%,–
Nc1ccccc1[As](=O)(O)c1ccccc1,inactive: 3.7%,–
NC(=O)Nc1ccc([As](=O)(O)O)cc1,inactive: 2.21%,–
CN(C(=O)Cc1ccccc1)[C@@H]1CC[C@]2(CCCO2)C[C@H]1N1CCCC1,inactive: 3.83%,–
CCOP1(=S)c2c(C)nn(CCC#N)c2N=C(c2ccc(F)cc2)N1C (stereo not given),inactive: 0.763%,–
N#CCCN(C(=O)COC(=O)C(O)(c1ccccc1)c1ccccc1)c1ccc(F)cc1,inactive: 2.91%,–
CN(C(=O)Cc1ccc(Cl)c(Cl)c1)[C@H]1CC[C@@]2(CCCO2)C[C@@H]1N1CCCC1,inactive: 18.2%,–
CN(C)C(=O)c1cc([N+](=O)[O-])cc2c1-c1c(cc([N+](=O)[O-])cc1[N+](=O)[O-])C2=O,inactive: -2.39%,–
